Test results reported in PubChem BioAssay AID488922 (Johns Hopkins Ion Channel Center, 2010).
The list shows a part of the results, in another mix than the full data. Calls of active or inactive are those of the source.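 Rule for the calls: active = ratio B-score over 3 SD below the library mean, with starting fluorescence within 5 SD of its mean; inactive = the rest, inconclusive results apart.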

Protein sequences, listed by entry. Tags and fused reporters are not part of them.
UniProt Q9NPC2, whole entry: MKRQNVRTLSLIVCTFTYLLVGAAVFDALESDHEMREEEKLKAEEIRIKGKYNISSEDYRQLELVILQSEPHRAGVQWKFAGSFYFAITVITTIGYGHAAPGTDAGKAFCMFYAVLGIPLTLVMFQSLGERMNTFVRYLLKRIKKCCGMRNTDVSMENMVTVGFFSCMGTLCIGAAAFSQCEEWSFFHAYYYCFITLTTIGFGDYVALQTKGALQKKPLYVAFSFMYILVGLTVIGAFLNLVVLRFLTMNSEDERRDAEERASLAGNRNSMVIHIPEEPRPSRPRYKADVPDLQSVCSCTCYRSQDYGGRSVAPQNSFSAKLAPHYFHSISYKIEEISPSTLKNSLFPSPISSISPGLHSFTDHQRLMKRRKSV

The compounds below were run against Potassium channel subfamily K member 9 (Homo sapiens) (UniProt Q9NPC2) (assay: blockers of human TASK-3 (KCNK9) channel – HEK293 cells, thallium flux, primary screen (AID 488922)). Details: HEK293 KCNK9, FluxOR thallium flux fluorescence; at 10 µM.

Structure (SMILES) | outcome
COc1ccc(OP(C)(=O)Nc2ccc(Br)cc2)cc1 (stereo not given) | inactive
CCN(CC)CC(O)COC(=O)C(O)(c1ccccc1)C1CCCCC1 (stereo not given) | inactive
O=C(O)CNc1ccc([As](=O)(O)O)cc1 | inactive
O=[N+]([O-])c1cccc(NC2=NCC(CBr)S2)c1 (stereo not given) | inactive
O=[N+]([O-])c1ncn(CCn2ncnc2[N+](=O)[O-])n1 | inactive
CC(C)(C)C(=O)NC(Sc1ccncn1)C(Cl)(Cl)Cl (stereo not given) | inactive
CP(=O)(OC12CC3CC(CC(C3)C1)C2)OC12CC3CC(CC(C3)C1)C2 | inactive
O=C(Nc1cc([As](=O)(O)O)ccc1O)c1ccccc1 | inactive
CCOC(=O)c1ccc(NP(C)(=O)Oc2ccc(Cl)cc2)cc1 (stereo not given) | inactive
Nc1ccc2c(ccc3cccnc32)n1.O=[N+]([O-])c1cc([N+](=O)[O-])c(O)c([N+](=O)[O-])c1 | inactive
CP(=O)(OCCOc1ccccc1)OCCOc1ccccc1 | inactive
CP(=O)(Nc1ccc(Cl)cc1Cl)Oc1ccccc1 (stereo not given) | inactive
Nc1cccc2ccc([As](=O)(O)O)cc12 | inactive
CCN(N=Nc1nonc1N)c1nonc1N | inactive
O=[N+]([O-])c1cc([N+](=O)[O-])c(CCN2CCOCC2)c([N+](=O)[O-])c1 | inactive
Cc1nc2ccc3ccccc3c2o1.O=[N+]([O-])c1cc([N+](=O)[O-])c(O)c([N+](=O)[O-])c1 | inactive
COc1ccc(OP(C)(=O)Nc2ccccc2Br)cc1 (stereo not given) | inactive
CN(C(=O)Cc1ccc(Cl)c(Cl)c1)[C@H]1CCCC[C@@H]1N1CCCC1 | inactive
Cc1ccc(NP(=O)(Oc2ccccc2F)Oc2ccccc2F)nc1 | inactive
COc1ccccc1OP(C)(=O)Nc1ccc(C)c(C)c1 (stereo not given) | inactive
CCOP(=O)(Nc1ccccc1)OCC | inactive
Cc1cc(SC(NC(=O)c2ccc(F)cc2)C(Cl)(Cl)Cl)ncn1 (stereo not given) | inactive
Cc1cc(C)cc(OP(C)(=O)Nc2cccc(C(F)(F)F)c2)c1 (stereo not given) | inactive

Structure (SMILES) | outcome
O=P(Nc1nc2ccc(Cl)cc2s1)(c1ccccc1)c1ccccc1 | inactive
O=C(O)c1ccccc1[As](=O)(O)O | inactive
CC(=O)Nc1ccc([As](=O)(O)O)cc1 | inactive
CCc1ccc(OP(C)(=O)O)cc1 | inactive
COc1ccccc1OP(C)(=O)Nc1ccc(C)cc1C (stereo not given) | inactive
CP(=O)(Nc1ccccn1)Oc1ccccc1 (stereo not given) | inactive
Cc1c2non([O-])c-2c(C)[n+](=O)[n+]1[O-] | inactive
O=C(NC(Sc1ccncn1)C(Cl)(Cl)Cl)c1ccccc1 (stereo not given) | inactive
Oc1ccccc1CNc1ccccn1 | inactive
O=[N+]([O-])c1cc([N+](=O)[O-])c(Nc2ccccn2)c([N+](=O)[O-])c1 | inactive
CC(C)CC(=O)NC(Sc1ccc(Cl)cc1)C(Cl)(Cl)Cl (stereo not given) | inactive
Nc1cc(N)c2nonc2c1[N+](=O)[O-] | inactive
Cc1c(NP(C)(=O)Oc2ccc(C(C)C)cc2)c(=O)n(-c2ccccc2)n1C (stereo not given) | inactive
CN(C)CCOC(=O)C(O)(c1ccccc1)C1CCCC1 (stereo not given) | inactive
Clc1ccc(Cl)c(NC2=NCC(CBr)S2)c1 (stereo not given) | inactive
CN1CCCC(OC(=O)C(c2ccccc2)c2ccccc2)C1 (stereo not given) | inactive
Cc1ccc(OP(=O)(Nc2nccs2)Oc2ccc(C)cc2)cc1 | inactive
COc1ccc(OP(C)(=O)Nc2ccccn2)cc1 (stereo not given) | inactive
COc1ccccc1OP(=O)(Nc1ccc(C)cn1)Oc1ccccc1OC | inactive
Cc1ccc(N/C(=N/P(=O)(N2CCOCC2)N2CCOCC2)N2CCOCC2)cc1 | inactive
COc1ccccc1OP(C)(=O)Nc1ccc(Br)cc1 (stereo not given) | inactive
NC(=O)c1cc([N+](=O)[O-])cc([N+](=O)[O-])c1N | inactive
